By UniProt entry, the sequences of proteins in these tests, tags left out. Residues count along the entry.
UniProt P43220, 24-463: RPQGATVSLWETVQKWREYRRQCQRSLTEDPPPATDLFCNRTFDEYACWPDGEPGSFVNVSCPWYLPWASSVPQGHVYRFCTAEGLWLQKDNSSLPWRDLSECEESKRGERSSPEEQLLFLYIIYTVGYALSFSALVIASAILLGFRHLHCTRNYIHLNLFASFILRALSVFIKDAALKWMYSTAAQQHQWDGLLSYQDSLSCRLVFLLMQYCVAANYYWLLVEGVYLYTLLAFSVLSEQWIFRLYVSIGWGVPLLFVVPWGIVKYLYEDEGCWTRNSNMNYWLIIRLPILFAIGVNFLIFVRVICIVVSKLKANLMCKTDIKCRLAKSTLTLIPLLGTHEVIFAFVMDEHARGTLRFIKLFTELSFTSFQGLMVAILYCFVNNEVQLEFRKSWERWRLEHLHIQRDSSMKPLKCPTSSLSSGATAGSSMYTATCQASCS

In patent US9861706B2, “GLP-1 receptor agonist peptide gastrin conjugates” (priority 2011, dated 2018):

Experiments:
human CCK-B R = molecular target: T1, human CCK-B R (Homo sapiens, UniProt P32239); assay: CCK-B receptor (CCK-B R) efficacy assay, AlphaScreen SureFire p-ERK in HEK293 cells; assay type: cell-based
T1 construct: expressed in transfected cells
T1 sequence (P32239 1-447): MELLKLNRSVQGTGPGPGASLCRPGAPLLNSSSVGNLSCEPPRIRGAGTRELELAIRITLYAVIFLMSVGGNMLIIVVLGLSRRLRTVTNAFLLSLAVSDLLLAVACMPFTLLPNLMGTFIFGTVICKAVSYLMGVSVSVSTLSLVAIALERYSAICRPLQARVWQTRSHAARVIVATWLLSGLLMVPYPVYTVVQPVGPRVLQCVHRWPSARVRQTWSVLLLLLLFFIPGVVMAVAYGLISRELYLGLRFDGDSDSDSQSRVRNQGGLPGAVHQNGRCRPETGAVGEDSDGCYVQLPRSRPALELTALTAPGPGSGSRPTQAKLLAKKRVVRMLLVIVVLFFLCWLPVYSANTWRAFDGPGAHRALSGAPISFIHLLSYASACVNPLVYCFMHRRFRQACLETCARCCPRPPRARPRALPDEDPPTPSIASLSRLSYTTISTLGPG

human GLP-1 R = molecular target: T2, human GLP-1 R (Homo sapiens, UniProt P43220); assay: Human GLP-1 receptor (GLP-1 R) efficacy assay, cAMP induction in HEK293 cells; assay type: cell-based
T2 construct: expressed in transfected cells

SMILES	EC50 (human CCK-B R) [nM]	EC50 (human GLP-1 R) [nM]
CCCCCCCCCCCCCCCC(=O)N[C@@H](CCC(=O)NCCCC[C@H](NC(=O)[C@H](CCC(=O)O)NC(=O)[C@@H](NC(=O)[C@H](Cc1ccccc1)NC(=O)[C@H](CC(C)C)NC(=O)[C@H](CCCNC(=N)N)NC(=O)[C@@H](NC(=O)[C@H](C)NC(=O)[C@H](CCC(=O)O)NC(=O)[C@H](CCC(=O)O)NC(=O)[C@H](CCC(=O)O)NC(=O)[C@H](CC(C)C)NC(=O)[C@H](Cc1ccc(O)cc1)NC(=O)[C@H](CCCCN)NC(=O)[C@H](CO)NC(=O)[C@H](CC(C)C)NC(=O)[C@H](CCC(=O)O)NC(=O)[C@H](CO)NC(=O)[C@@H](NC(=O)[C@H](Cc1ccccc1)NC(=O)[C@@H](NC(=O)CNC(=O)[C@H](CCC(=O)O)NC(=O)CNC(=O)[C@@H](N)Cc1c[nH]cn1)[C@@H](C)O)[C@@H](C)O)C(C)C)[C@@H](C)CC)C(=O)N[C@@H](CC(C)C)C(=O)N[C@@H](CCCCN)C(=O)NCCOCCOCC(=O)N[C@@H](CCC(N)=O)C(=O)N[C@@H](CCC(N)=O)C(=O)N[C@@H](Cc1ccc(O)cc1)C(=O)NCC(=O)N[C@@H](Cc1c[nH]c2ccccc12)C(=O)N[C@@H](CC(C)C)C(=O)N[C@@H](CC(=O)O)C(=O)N[C@@H](Cc1ccccc1)C(N)=O)C(=O)O [Compound 8]	21	0.8
CC[C@H](C)[C@H](NC(=O)[C@H](Cc1ccccc1)NC(=O)[C@H](CC(C)C)NC(=O)[C@H](CCCNC(=N)N)NC(=O)[C@@H](NC(=O)[C@H](C)NC(=O)[C@H](CCC(=O)O)NC(=O)[C@H](CCC(=O)O)NC(=O)[C@H](CCC(=O)O)NC(=O)[C@H](CC(C)C)NC(=O)[C@H](Cc1ccc(O)cc1)NC(=O)[C@H](CCCCN)NC(=O)[C@H](CO)NC(=O)[C@H](CC(C)C)NC(=O)[C@H](CCC(=O)O)NC(=O)[C@H](CO)NC(=O)[C@@H](NC(=O)[C@H](Cc1ccccc1)NC(=O)[C@@H](NC(=O)CNC(=O)[C@H](CCC(=O)O)NC(=O)CNC(=O)[C@@H](N)Cc1c[nH]cn1)[C@@H](C)O)[C@@H](C)O)C(C)C)C(=O)N[C@@H](CCC(=O)O)C(=O)N[C@@H](Cc1ccccc1)C(=O)N[C@@H](CC(C)C)C(=O)N[C@@H](CCCCN)C(=O)NCCOCCOCC(=O)N[C@@H](CCC(N)=O)C(=O)N[C@@H](CCC(N)=O)C(=O)N[C@@H](Cc1ccc(O)cc1)C(=O)NCC(=O)N[C@@H](Cc1c[nH]c2ccccc12)C(=O)N[C@@H](CC(C)C)C(=O)N[C@@H](CC(=O)O)C(=O)N[C@@H](Cc1ccccc1)C(N)=O [Compound 11]	59	0.098
